Results: patent US20240360179A1, “STAPLED PEPTIDES AND METHODS THEREOF” (FOG PHARMACEUTICALS, INC., priority 2021, published 2024)

The chains behind the UniProt entries cited, without tags or fusion partners.
UniProt P35222, whole entry: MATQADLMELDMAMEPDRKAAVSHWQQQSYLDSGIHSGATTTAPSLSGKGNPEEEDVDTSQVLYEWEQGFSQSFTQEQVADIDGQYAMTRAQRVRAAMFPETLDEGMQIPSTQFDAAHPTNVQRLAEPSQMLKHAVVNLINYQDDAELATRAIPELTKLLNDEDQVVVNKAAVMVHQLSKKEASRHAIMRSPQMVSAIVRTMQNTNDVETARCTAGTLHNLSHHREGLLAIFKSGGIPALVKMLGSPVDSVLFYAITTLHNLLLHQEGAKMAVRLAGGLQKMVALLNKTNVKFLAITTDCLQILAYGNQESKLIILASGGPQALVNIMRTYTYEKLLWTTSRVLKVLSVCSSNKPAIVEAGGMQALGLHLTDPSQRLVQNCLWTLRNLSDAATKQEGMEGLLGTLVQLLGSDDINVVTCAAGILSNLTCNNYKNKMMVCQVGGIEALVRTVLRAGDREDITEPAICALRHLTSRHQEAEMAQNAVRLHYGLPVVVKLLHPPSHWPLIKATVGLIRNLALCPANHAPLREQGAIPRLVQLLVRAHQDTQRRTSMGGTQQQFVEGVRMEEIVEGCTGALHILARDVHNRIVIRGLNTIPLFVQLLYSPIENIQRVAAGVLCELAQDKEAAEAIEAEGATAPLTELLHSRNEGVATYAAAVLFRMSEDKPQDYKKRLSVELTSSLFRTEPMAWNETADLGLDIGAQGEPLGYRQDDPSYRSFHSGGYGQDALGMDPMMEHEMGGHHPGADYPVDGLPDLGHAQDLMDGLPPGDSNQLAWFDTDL

Legend:
[1] = molecular target: T1, full-length B-Catenin (Uniprot ID P35222) (Homo sapiens, UniProt P35222); experiment: biochemical; assay type: binding; details: beta-Catenin FP IC50 (nM), competition fluorescence polarization
T1 construct: 10 nM full-length B-Catenin (Uniprot ID P35222)

[2] = molecular target: beta-catenin/TCF4 interaction (Homo sapiens, UniProt P35222); experiment: cell-based; set-up: host or cells: HEK293; details: NanoBRET Abs IC50 (uM)

## CC(=O)N1CCC[C@]12CC=CCCCC1(CCCC=CCCCOC(=O)N3CC[C@@]4(C3)NC(=O)[C@@H](CCCCNC(=O)CC[C@@H](C(N)=O)NC(=O)[C@H](Cc3csc5ccccc35)NC(=O)[C@H](Cc3ccsc3)NC4=O)NC(=O)[C@H](Cc3ccccc3)NC(=O)[C@H](C)NC(=O)[C@H](C)NC(=O)[C@H](Cc3cccc(C(=O)O)c3)NC(=O)[C@H](CC(=O)O)NC1=O)NC(=O)[C@H](CC(C)C)NC(=O)[C@H](CC(=O)O)NC2=O (single isomer, unassigned) [I-9, Ac-PL3-Asp-Leu-B5-Asp-3COOHF-Ala-Ala-Phe-dLys*3-PyrS2-3Thi-BztA-GlnR*3-NH2]
[1]
  IC50: < 50 nM
[2]
  IC50: 3 to 10 µM

## CC(=O)N1CCC[C@]12CC=CCCCC1(CCCC=CCCCOC(=O)N3CC[C@@]4(C3)NC(=O)[C@H](CCCCNC(=O)CC[C@@H](C(N)=O)NC(=O)[C@H](Cc3csc5ccccc35)NC(=O)[C@H](Cc3ccsc3)NC4=O)NC(=O)[C@H](Cc3ccccc3)NC(=O)[C@H](C)NC(=O)[C@H](C)NC(=O)[C@H](Cc3cccc(C(=O)O)c3)NC(=O)[C@H](CC(=O)O)NC1=O)NC(=O)[C@H](CC(C)C)NC(=O)[C@H](CC(=O)O)NC2=O (single isomer, unassigned) [I-11, Ac-PL3-Asp-Leu-B5-Asp-3COOHF-Ala-Ala-Phe-Lys*3-PyrS2-3Thi-BztA-GlnR*3-NH2]
[1]
  IC50: < 50 nM
[2]
  IC50: 1.5 to 3 µM

## CC(=O)N1CCC[C@]12CC=CCCCC1(CCCC=CCCCOC(=O)N3CC[C@@]4(C3)NC(=O)[C@@H](CCC(=O)NCCCC[C@@H](C(N)=O)NC(=O)[C@H](Cc3csc5ccccc35)NC(=O)[C@H](Cc3ccsc3)NC4=O)NC(=O)[C@H](Cc3ccccc3)NC(=O)[C@H](C)NC(=O)[C@H](C)NC(=O)[C@H](Cc3cccc(C(=O)O)c3)NC(=O)[C@H](CC(=O)O)NC1=O)NC(=O)[C@H](CC(C)C)NC(=O)[C@H](CC(=O)O)NC2=O (single isomer, unassigned) [I-13, Ac-PL3-Asp-Leu-B5-Asp-3COOHF-Ala-Ala-Phe-DGlnR*3-PyrS2-3Thi-BztA-Lys*3-NH2]
[1]
  IC50: < 50 nM
[2]
  IC50: 3 to 10 µM

## CC(=O)N1CCC[C@]12CC=CCCCC1(CCCC=CCCCOC(=O)N3CC[C@@]4(C3)NC(=O)[C@H](CCC(=O)NCCCC[C@@H](C(N)=O)NC(=O)[C@H](Cc3csc5ccccc35)NC(=O)[C@H](Cc3ccsc3)NC4=O)NC(=O)[C@H](Cc3ccccc3)NC(=O)[C@H](C)NC(=O)[C@H](C)NC(=O)[C@H](Cc3cccc(C(=O)O)c3)NC(=O)[C@H](CC(=O)O)NC1=O)NC(=O)[C@H](CC(C)C)NC(=O)[C@H](CC(=O)O)NC2=O (single isomer, unassigned) [I-15, Ac-PL3-Asp-Leu-B5-Asp-3COOHF-Ala-Ala-Phe-GlnR*3-PyrS2-3Thi-BztA-Lys*3-NH2]
[1]
  IC50: < 50 nM
[2]
  IC50: 1.5 to 3 µM

## CC(=O)N1CCC[C@]12CC=CCCCC1(CCCC=CCCCOC(=O)N3CC[C@@]4(C3)NC(=O)[C@H](CCCCn3cc(nn3)C[C@@H](C(N)=O)NC(=O)[C@H](Cc3csc5ccccc35)NC(=O)[C@H](Cc3ccsc3)NC4=O)NC(=O)[C@H](Cc3ccccc3)NC(=O)[C@H](C)NC(=O)[C@H](C)NC(=O)[C@H](CC(=O)O)NC(=O)[C@H](CC(=O)O)NC1=O)NC(=O)[C@H](CC(C)(C)C)NC(=O)[C@H](CC(=O)O)NC2=O (single isomer, unassigned) [I-17, Ac-PL3-Asp-Npg-B5-Asp-Asp-Ala-Ala-Phe-TriAzLys*3-PyrS2-3Thi-BztA-sAla*3-NH2]
[1]
  IC50: < 50 nM
[2]
  IC50: > 10 µM

## CC(=O)N1CCC[C@]12CC=CCCCC1(CCCC=CCCCOC(=O)N3CC[C@@]4(C3)NC(=O)[C@H](CCCCn3cc(nn3)C[C@@H](C(N)=O)NC(=O)[C@H](Cc3csc5ccccc35)NC(=O)[C@H](Cc3ccsc3)NC4=O)NC(=O)[C@H](Cc3ccccc3)NC(=O)[C@H](C)NC(=O)[C@H](C)NC(=O)[C@H](Cc3cccc(C(=O)O)c3)NC(=O)[C@H](CC(=O)O)NC1=O)NC(=O)[C@H](CC(C)(C)C)NC(=O)[C@H](CC(=O)O)NC2=O (single isomer, unassigned) [I-19, Ac-PL3-Asp-Npg-B5-Asp-3COOHF-Ala-Ala-Phe-TriAzLys*3-PyrS2-3Thi-BztA-sAla*3-NH2]
[1]
  IC50: < 50 nM
[2]
  IC50: 3 to 10 µM
